We go through four molecules from US12398179 (SANFORD BURNHAM PREBYS MEDICAL DISCOVERY INSTITUTE, dated 2025).

Protein sequences, listed by entry. Tags and fused reporters are not part of them. Chains listed by the source or under a name are the forms on record and can include a tag or linker.
UniProt P29317, other isoform, or with tags, fused parts or gaps limits assumed, form in doubt: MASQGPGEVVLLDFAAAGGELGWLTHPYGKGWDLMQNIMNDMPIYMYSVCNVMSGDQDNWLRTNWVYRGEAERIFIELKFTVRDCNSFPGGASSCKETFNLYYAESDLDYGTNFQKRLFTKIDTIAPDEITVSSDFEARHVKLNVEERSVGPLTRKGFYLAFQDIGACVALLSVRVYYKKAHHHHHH
UniProt P29317, whole entry: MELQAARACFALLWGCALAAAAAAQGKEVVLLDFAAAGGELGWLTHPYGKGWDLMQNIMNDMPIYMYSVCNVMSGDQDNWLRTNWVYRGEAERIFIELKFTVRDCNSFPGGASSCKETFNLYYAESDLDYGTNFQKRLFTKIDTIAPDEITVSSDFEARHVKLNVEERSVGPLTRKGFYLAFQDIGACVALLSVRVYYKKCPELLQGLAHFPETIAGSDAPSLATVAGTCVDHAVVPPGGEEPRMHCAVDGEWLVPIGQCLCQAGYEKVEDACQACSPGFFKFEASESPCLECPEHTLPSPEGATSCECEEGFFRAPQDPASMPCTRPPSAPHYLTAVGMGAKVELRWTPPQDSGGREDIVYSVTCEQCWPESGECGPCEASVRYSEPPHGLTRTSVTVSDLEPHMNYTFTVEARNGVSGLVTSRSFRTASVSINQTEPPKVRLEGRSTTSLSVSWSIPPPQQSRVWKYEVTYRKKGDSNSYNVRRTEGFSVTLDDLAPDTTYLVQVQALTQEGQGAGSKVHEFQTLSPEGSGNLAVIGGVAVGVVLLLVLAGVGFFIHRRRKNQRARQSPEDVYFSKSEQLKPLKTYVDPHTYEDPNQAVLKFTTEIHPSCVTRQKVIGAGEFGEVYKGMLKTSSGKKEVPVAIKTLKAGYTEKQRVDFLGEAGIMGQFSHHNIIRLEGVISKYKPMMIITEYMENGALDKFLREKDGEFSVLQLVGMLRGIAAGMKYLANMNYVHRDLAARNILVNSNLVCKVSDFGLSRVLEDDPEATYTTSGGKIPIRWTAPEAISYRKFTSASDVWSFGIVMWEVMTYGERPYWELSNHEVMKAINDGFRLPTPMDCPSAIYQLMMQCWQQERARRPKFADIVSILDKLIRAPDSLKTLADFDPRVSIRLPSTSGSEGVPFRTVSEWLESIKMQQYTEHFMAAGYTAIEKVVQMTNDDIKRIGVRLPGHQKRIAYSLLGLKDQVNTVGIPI

Assay [1] addresses T1, EphA2 ligand binding domain (EphA2 LBD, residues 28-200) with N-terminal MASQGPG and C-terminal Ala-6xHis tag (UniProt P29317 28-200).
T1 construct: range 28-200; Expressed in E. coli Origami 2 (DE3); used for ITC and crystallization
Kind of assay: ITC, peptide titrated into EphA2 LBD, 23 °C. A general note: ITC needs no label: the signal is the heat of the interaction.

In assay [2] the target is T2, EphA2 extracellular domain fused to the Fc portion of an antibody (EphA2 Fc).
T2 construct: extracellular domain; Immobilized in the ELISAs
Kind of assay: competition ELISA: inhibition of ephrin-A5 AP binding to immobilized EphA2 Fc; average ± SE (number of experiments).

Assay [3] concerns the target T1, EphA2 ligand binding domain (EphA2 LBD, …). Kind of assay: ITC, peptide titrated into EphA2 LBD, 23 °C; average ± SE (number of experiments).

B1: YSA-GSGSK-bio (peptide)
peptide: YSAYPDSVPMMSGSGSK
modifications: biotin on the side chain of the C-terminal lysine (K-bio)
notes: YSA with C-terminal GSGSK linker and biotin on the lysine side chain; also called YSA-GSGSK-biotin; YSA-GSGSK-bio peptide
B1 showed a TΔS in assay [1] of 19.2 kcal/mol. For the molecule AWLAYPDSVPYRPK (N-terminal beta-alanine (βA); C-terminal amide (am), also called BA-WLA-YRPKam) [βA-WLA-YRPKam], the TΔS in assay [1] was 21.2 kcal/mol. Turning to YSAYPDSVPMMSGSGSK [YSA-GSGSK], the TΔS in assay [1] was 15.5 kcal/mol. In turn, KAWLAYPDSVPYRPK (biotin on the N-terminal lysine (K-bio); C-terminal amide (am)) [K-bioA-WLA-YRPKam] yielded an IC50 in assay [2] of 13 nM. Further, in assay [1], the “N (binding stoichiometry)” value came to 1.06 and the TΔS is 14.3 kcal/mol. In assay [3], this molecule displayed a Kd of 27 nM.

The term IC50 denotes the concentration that gives 50% inhibition. The term Kd denotes the constant that tells how readily two partners part at equilibrium. Low readings indicate higher affinity, high ones lower affinity.
